# Laboratory results taken from paper PMC6030254.
# B1: Mannan-binding lectin (MBL) of MBL-sufficient serum, P11226 21-248 (natural protein)
# chain: ETVTCEDAQKTCPAVIACSSPGINGFPGKDGRDGTKGEKGEPGQGLRGLQGPPGKLGPPGNPGPSGSPGPKGQKGDPGKSPDGDSSLAASERKALQTEMARIKKWLTFSLGKQVGNKFFLTNGEIMTFEKVKALCVKFQASVATPRNAAENGAIQNLIKEEAFLGITDEKTEGQFVDLTGNRLTYTNWNEGEPNNAGSDEDCVLLLKNGQWNDVPCSTSHLAVCEFPI
# Biological target: T1, Mannan-binding lectin (MBL) of MBL-sufficient serum (human (endogenous in serum)), P11226
# T1 chain: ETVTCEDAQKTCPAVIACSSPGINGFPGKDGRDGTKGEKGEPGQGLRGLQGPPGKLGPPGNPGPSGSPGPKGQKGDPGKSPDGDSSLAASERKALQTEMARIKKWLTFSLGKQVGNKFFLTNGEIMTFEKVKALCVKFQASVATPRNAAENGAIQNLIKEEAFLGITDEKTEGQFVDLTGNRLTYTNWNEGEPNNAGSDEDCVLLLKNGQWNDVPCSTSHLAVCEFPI
# Assay: SEC; serum fractionated on Superdex 200 10/300 GL in veronal-buffered saline with 140 mM NaCl, 0.5 ml/min, column calibrated with markers; the protein in each 500 µl fraction detected by ELISA (on mannan, mannan-bound rMBL or acetylated BSA); relative sizes
# Details: remark: other sources report otherwise
binder,measurement,value
B1,stoichiometry N,3
